# PDI turbidity: blocks human protein disulfide isomerase activity; PDI insulin aggregation turbidity, A650, 90 min; actives 0.052% (n = 350,000); P07237; inhibition, % at 10 µM;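 active = mean inhibition across replicates of 30% or more, whatever share of single replicates reach that level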
# ARNT-TACC3 inh: ARNT/TACC3 interaction disruption; Q9Y6A5; AlphaScreen His-ARNT PAS-B/GST-TACC3 binding, luminescence; TACC3 fragment carries E629A point mutation; inhibition, % at 9.99 µM; actives 0.66% (n = 390,000); AID 623870;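 active = mean inhibition of replicates at least 50% and at least half of replicates each reaching 50%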;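 also: 0% = complete ARNT plus TACC3 wells and 100% = ARNT alone without TACC3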
# ERp5 block: blocks human ERp5 reductase activity on insulin. Q15084. ERp5 insulin aggregation, absorbance 650 nm, 90 min. inhibition, % at 9.99 µM. actives 0.05% (n = 350,000). AID 651711;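 active = mean replicate inhibition above about 25%, with every replicate also reaching it, limit read from the data, passing the limit was not always enough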
# Yeast UUG start-1: modulators of yeast start codon fidelity, primary screen, whole organism, S. cerevisiae, single point, plate reader. S. cerevisiae UUG-firefly luciferase reporter, luminescence/redox ratio. activity score, % at 18.7 µM. actives 0.13% (n = 350,000);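 active = replicate mean at a twofold rise or more, about +100% in these data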;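 note: firefly luciferase made from a UUG start codon reports start codon fidelity; reporter light over untreated wells divided by growth signal over untreated wells; some hits fall short of that in this replicate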
# FGF22 binding: binders of recombinant human FGF22 by thermal shift; Q9HCT0; actives 1.5% (n = 340,000); activity (Tm shift, normalised), % at 9.99 µM; SYPRO orange fluorescence; percent of sucrose octasulfate shift, DMSO zero;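 active = mean Tm shift, scaled 0 neutral to 100 positive control, at about 1.3% or above, every replicate too, limit read from the data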
# PglD DTNB: inhibitors of Campylobacter jejuni PglD acetyltransferase; purified PglD enzyme, DTNB colorimetric CoA detection; inhibition, % at 12.5 µM; actives 0.098% (n = 360,000); in the data active = inhibition above about 16%, passing the limit was not always enough
# Yeast UUG start-2: alters UUG start codon use in yeast; 540 tested, under 10 active; shares compounds with Yeast UUG start-1; S. cerevisiae UUG-start firefly luciferase, luminescence, 4 h; 100% means double the DMSO signal; activation, % at 38 µM; AID 652061;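 active = signal increase whose fitted curve reaches an absolute level of 40 at a concentration under 10 µM; inactive = activity opposite to the expected increase, or the rest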
# Starred values were filed as active, the others as inactive; i = inactive; . = no result; ! = not confirmed by another sample. Hits are enriched below; roughly 1.9% of the tested compounds scored in any of these assays.
# Key to letters – A = PDI turbidity; B = ARNT-TACC3 inh; C = ERp5 block; D = Yeast UUG start-1; E = FGF22 binding; F = PglD DTNB; G = Yeast UUG start-2
> COCC(=O)Nc1ccc2c(c1)OC[C@@H](C)N(C(=O)COC)C[C@@H](C)[C@@H](OC)CN(C)C2=O
  A: .; B: -21; C: -6; D: 197*; E: 0; F: -1; G: i
> CO[C@@H]1CN(C)C(=O)c2ccc(NC(=O)c3ccccc3F)cc2OC[C@@H](C)N(C(C)=O)C[C@@H]1C
  A: .; B: -8; C: 0; D: 2; E: 0; F: 1; G: .
> COCC(=O)Nc1ccc2c(c1)OC[C@H](C)N(C(=O)COC)C[C@H](C)[C@@H](OC)CN(C)C2=O
  A: .; B: .; C: 3; D: .; E: 0; F: .; G: .
> CO[C@@H]1CN(C)C(=O)c2ccc(NC(=O)c3ccccc3F)cc2OC[C@H](C)N(C(C)=O)C[C@@H]1C
  A: .; B: 14; C: -1; D: 123*; E: 0; F: 3; G: i
> COCC(=O)Nc1ccc2c(c1)C(=O)N(C)C[C@@H](OC)[C@H](C)CN(Cc1ccccc1F)[C@H](C)CO2
  A: .; B: -6; C: -2; D: 3; E: 0; F: -1; G: .
> COCC(=O)Nc1ccc2c(c1)C(=O)N(C)C[C@@H](OC)[C@@H](C)CN(Cc1ccccc1F)[C@@H](C)CO2
  A: .; B: -3; C: 9; D: 180*; E: 0; F: 2; G: i
> C[C@H](CO)N1C[C@H](C)[C@@H](CN(C)C(=O)NC2CCCCC2)OCCCC[C@H](C)Oc2ccc(NC(=O)Nc3ccc(F)cc3)cc2C1=O
  A: .; B: 19; C: 7; D: 2; E: 0; F: 0; G: .
> CCOC(=O)C1CCN(C(=O)Cn2cc(C(=O)C3CC3)c3ccccc32)CC1
  A: -6; B: -10; C: .; D: -9; E: .; F: 0; G: 11
> O=C(Cn1cc(C(=O)C2CC2)c2ccccc21)NCC1CCCO1 (centres undefined)
  A: -2; B: -2; C: .; D: 9; E: .; F: -4; G: 6
> O=C(c1cn(CC(=O)N2CCCCC2)c2ccccc12)C1CC1
  A: 3; B: -22; C: .; D: -15; E: .; F: 11; G: 3
> CC(=O)c1cn(CC(=O)NCC2CCCO2)c2ccccc12 (centres undefined)
  A: 0; B: -7; C: .; D: 1; E: .; F: -5; G: .
> O=C(O)Cn1cc(C(=O)C2CC2)c2ccccc21
  A: -2; B: -8; C: .; D: -5; E: .; F: 2; G: .
> O=C(Cn1cc(C(=O)C2CC2)c2ccccc21)NC1CCCC1
  A: 5; B: -4; C: .; D: 6; E: .; F: -2; G: 8
> C[C@@H]1CN([C@H](C)CO)C(=O)c2cc(NS(=O)(=O)c3ccc(F)cc3)ccc2O[C@@H](C)CCCCO[C@H]1CN(C)S(=O)(=O)c1ccccc1
  A: .; B: .; C: 0; D: .; E: 0; F: .; G: .
> CCOc1cc(C(=S)N2CCOCC2)ccc1OC(=O)/C=C/c1ccc(OC)c(OC)c1
  A: 6; B: .; C: .; D: 517*; E: .; F: 1; G: 3
> CO[C@H]1CN(C)C(=O)c2ccc(NC(=O)C3CC3)cc2OC[C@H](C)N(Cc2ccccc2)C[C@@H]1C
  A: .; B: .; C: .; D: .; E: 0; F: .; G: .
> COc1ccc(S(=O)(=O)Nc2ccc3c(c2)CC(=O)N([C@@H](C)CO)C[C@@H](C)[C@H](CN(C)S(C)(=O)=O)O3)cc1
  A: .; B: -7; C: 1; D: -4; E: 0; F: 0; G: .
> C[C@@H]1CN([C@H](C)CO)C(=O)c2cc(NC(=O)C3CC3)ccc2O[C@H]1CN(C)Cc1ccccc1
  A: .; B: 3; C: 0; D: -7; E: 0; F: -1; G: .
> Cn1nc(CC(=O)N2CCN(c3ccccc3)CC2)c2ccccc2c1=O
  A: -1; B: -1; C: .; D: -8; E: .; F: 0; G: -2
> O=C(O)c1nn(CC(=O)N2CCN(c3ccccc3)CC2)c(=O)c2ccccc12
  A: 4; B: -5; C: 2; D: -10; E: 0; F: 1; G: .
> CC1CCN(C(=O)Cc2nn(C)c(=O)c3ccccc23)CC1
  A: 3; B: -15; C: .; D: -9; E: .; F: 7; G: 4
> CC(C)NC(=O)Nc1ccc2c(c1)CC(=O)N([C@@H](C)CO)C[C@H](C)[C@H](CN(C)Cc1ccc(C(=O)O)cc1)O2
  A: .; B: -14; C: 8; D: -8; E: 0; F: 2; G: .
> CCCCn1c(N)c(N(CCOC)C(=O)C2CC(=O)N(c3ccc(CC)cc3)C2)c(=O)[nH]c1=O (centres undefined)
  A: -6; B: -10; C: 1; D: 129*; E: 0; F: 3; G: -6
> CCCCn1c(N)c(N(CCOC)C(=O)C2CC(=O)N(Cc3ccc(C)cc3)C2)c(=O)[nH]c1=O (centres undefined)
  A: 0; B: 1; C: -4; D: -6; E: 0; F: 0; G: .
> C[C@@H]1CN([C@@H](C)CO)C(=O)c2cc(NC(=O)CCCCCC(=O)Nc3ccccc3N)ccc2O[C@@H]1CN(C)CC1CCCCC1
  A: .; B: .; C: -8; D: .; E: 0; F: .; G: .

# Random excerpt: 2 compounds from above.
# Key to letters – A = PDI turbidity; B = ARNT-TACC3 inh; C = ERp5 block; D = Yeast UUG start-1; E = FGF22 binding; F = PglD DTNB; G = Yeast UUG start-2
> O=C(Cn1cc(C(=O)C2CC2)c2ccccc21)NC1CCCC1
  A: 5; B: -4; C: .; D: 6; E: .; F: -2; G: 8
> CCCCn1c(N)c(N(CCOC)C(=O)C2CC(=O)N(Cc3ccc(C)cc3)C2)c(=O)[nH]c1=O (centres undefined)
  A: 0; B: 1; C: -4; D: -6; E: 0; F: 0; G: .

# (continued)
# Key to letters – A = PDI turbidity; B = ARNT-TACC3 inh; C = ERp5 block; D = Yeast UUG start-1; E = FGF22 binding; F = PglD DTNB; G = Yeast UUG start-2
> O=C(O)C[C@@H]1CC[C@H](NC(=O)Nc2cc(F)ccc2F)[C@H](CO)O1
  A: .; B: -9; C: 2; D: -1; E: 0; F: -1; G: .
> Cc1cc(Nc2ccccc2)nc(NCc2ccccc2)n1
  A: 0; B: 6; C: -3; D: .; E: 0; F: .; G: .
> Cc1cc(Nc2ccc(Cl)cc2)nc(NCc2ccccc2)n1
  A: 4; B: 3; C: .; D: active; E: .; F: 8; G: -2
> COc1ccc(CN2C(=O)[C@@H]3[C@H]4C(=O)O[C@H](c5ccccc5)[C@@H](C)N(C)C(=O)CC/C=C/[C@H]4O[C@@]34C=CCN(Cc3ccccc3)C(=O)[C@@H]24)cc1
  A: .; B: 12; C: 4; D: 12*!; E: 0; F: 2; G: i
> C=CCN(Cc1ccccc1)C(=O)[C@H]1N(Cc2ccc(OC)cc2)C(=O)[C@@H]2[C@@H](C(=O)O)C3C=CC21O3 (some centres undefined)
  A: .; B: -18; C: 1; D: -6; E: 1; F: -1; G: .
> O=C(Cc1ccccn1)NCC[C@@H]1CC[C@H](NS(=O)(=O)c2ccc(Cl)cc2)[C@H](CO)O1
  A: .; B: 4; C: -1; D: 103*; E: 0; F: 0; G: i
> COc1cccc(-c2cn(CC[C@@H]3CC[C@H](NC(=O)CC4CC4)[C@@H](CO)O3)nn2)c1
  A: .; B: -15; C: 6; D: 155*; E: 0; F: -35; G: i
> O=S(=O)(N[C@@H]1CC[C@H](CCn2cc(-c3cccnc3)nn2)O[C@@H]1CO)c1ccc(Cl)cc1
  A: .; B: -11; C: 0; D: 102*; E: 0; F: -2; G: i
> COCc1cn(CC[C@H]2CC[C@H](NC(=O)Nc3c(C)noc3C)[C@H](CO)O2)nn1
  A: .; B: 18; C: 2; D: 194*; E: 0; F: -5; G: i
> O=C(Cc1ccccn1)NCC[C@H]1CC[C@@H](NS(=O)(=O)c2ccc(Cl)cc2)[C@@H](CO)O1
  A: .; B: -1; C: 1; D: -8; E: 0; F: 0; G: .
> COc1cccc(-c2cn(CC[C@H]3CC[C@H](NC(=O)CC4CC4)[C@H](CO)O3)nn2)c1
  A: .; B: -29; C: 3; D: -2; E: 0; F: -1; G: .
> COCc1cn(CC[C@H]2CC[C@@H](NC(=O)Nc3c(C)noc3C)[C@H](CO)O2)nn1
  A: .; B: -14; C: 1; D: -4; E: 0; F: 0; G: .
> O=C(Cc1ccccn1)N[C@H]1CC[C@@H](CCNS(=O)(=O)c2cccc(F)c2)O[C@H]1CO
  A: .; B: -9; C: 3; D: 3; E: 0; F: 5; G: .
> O=C(Cc1ccccn1)N[C@H]1CC[C@@H](CCNS(=O)(=O)c2cccc(F)c2)O[C@@H]1CO
  A: .; B: 24; C: -1; D: 243*; E: 0; F: 0; G: i
> COc1ccc(-c2nnc(SCC#N)o2)cc1
  A: 5; B: -2; C: .; D: -10; E: .; F: -1; G: .

# Screening results as filed in PubChem BioAssay.
